The target in one data set is PPARγ1 (Homo sapiens, UniProt P37231). In words: PPRE-Luciferase reporter transactivation in HEK293 cells expressing PPARγ1. Format: cell-based.
Data set [1] has as its system HT-29 cells. In words: Viability / proliferation assay in HT-29 cells (cell counting).
Data set [2] has as its system HT-29 cells. In words: Cell cycle analysis by flow cytometry (propidium iodide) in HT-29 cells. The following applies: 1 to 25 µM, 48 hs, FACS. For orientation: In flow cytometry, cells or beads pass a laser one at a time.
The subject of data set [3] is p21^waf1/cip1. In words: Western blotting of p21waf1/cip1 in HT-29 cells. The following applies: 10 µM, 48 hs. It is filed as cell-based, human. How it is done:
Figure 1 Cell cycle analysis of HT-29 cells treated with increasing amounts of RGZ, (R,S)-3, (S)-3 or (R,S)-7 and p21^waf1/cip1 expression evaluation by Western blotting. (A) Flow cytometric assay carried out on HT-29 cells treated or not with the indicated compounds at different concentrations ranging from 1 to 25 µM for 48 hs. HT-29 cells exposed or not to these compounds were harvested, permeabilized and stained with propidium iodide and analyzed by FACS. Data are means ± SD of two independent experiments. *p ≤ 0.05, **p ≤ 0.01 compared to the control. (B) Proliferating HT-29 cells were treated or not for 48 hs with 10 µM of the indicated compounds. Protein extracts were prepared and assessed for p21^waf1/cip1 expression in Western blotting analysis. β-Actin was used for protein load normalization. The bar graphs are the mean ± SD of three independent experiments. **p ≤ 0.01 compared to the control.
To better characterize the growth inhibition elicited by (R,S)-3, (S)-3 and (R,S)-7, we examined changes in the expression of proteins involved in cell cycle control (Figs 1B and 2A). To this goal, protein extracts from proliferating HT-29 cells, treated for 48 hs with the vehicle alone (DMSO), or 10 μM RGZ, (R,S)-3, (S)-3 or (R,S)-7, respectively, were analyzed by Western blotting for p21^waf1/cip1 expression. […]
(In general: A western blot detects proteins with antibodies after separation by electrophoresis.)

By UniProt entry, the sequences of proteins in these tests, tags left out. Residues count along the entry.
UniProt P37231, 29-505: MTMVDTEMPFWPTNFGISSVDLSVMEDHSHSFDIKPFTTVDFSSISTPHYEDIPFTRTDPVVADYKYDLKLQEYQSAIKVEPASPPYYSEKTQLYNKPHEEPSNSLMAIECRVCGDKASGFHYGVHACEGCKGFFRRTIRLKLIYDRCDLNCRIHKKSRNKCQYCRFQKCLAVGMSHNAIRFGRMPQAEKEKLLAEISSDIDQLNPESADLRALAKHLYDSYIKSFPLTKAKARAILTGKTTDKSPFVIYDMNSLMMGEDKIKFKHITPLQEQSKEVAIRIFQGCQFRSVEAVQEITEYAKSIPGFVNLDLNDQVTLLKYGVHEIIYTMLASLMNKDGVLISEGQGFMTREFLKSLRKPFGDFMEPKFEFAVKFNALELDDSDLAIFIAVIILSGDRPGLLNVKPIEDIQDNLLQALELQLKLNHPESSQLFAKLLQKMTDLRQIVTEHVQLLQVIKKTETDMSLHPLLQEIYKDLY

The next data set concerns cyclin D1. Kind of data set: Western blotting of cyclin D1 in HT-29 cells. The following applies: 10 µM, 48 hs.
Another data set concerns c-Myc. Kind of data set: Western blotting of c-Myc in HT-29 cells. Particulars: 10 µM, 48 hs.
Another data set deals with β-catenin. In words: Western blotting of β-catenin in HT-29 cells. The following applies: 10 µM, 48 hs.
The next data set concerns β-catenin/TCF pathway. Kind of data set: Top-FLASH reporter luciferase assay in LiCl-induced HEK-293 cells. The following applies: HEK-293, Top-FLASH, 20 mM LiCl plus 1 µM compound, 24 hs, relative to LiCl alone. Format: cell-based. How it is done: Figure 2 Effects of RGZ, (R,S)-3, (S)-3 and (R,S)-7 on the expression of different protein markers. Proliferating HT-29 cells were treated for 48 hs with 10 µM of the indicated compounds. Specific antibodies against cyclin D1 (A), c-Myc (B), β-catenin (C) and PPARγ (D) respectively, were used in Western blotting analysis. An anti-β-actin antibody was used as a control for protein loading. The graphs of (A) and (B) represent the means ± SD of three independent experiments. **p ≤ 0.01, ***p ≤ 0.005 compared to the control. The bar graphs of (C,D) are the means ± SD of three independent experiments. *p ≤ 0.05 compared to the control. (E) Top-FLASH luciferase assay performed in HEK-293 cells transiently transfected with the Top-FLASH reporter plasmid and exposed to 20 mM LiCl alone or in combination with 1 µM RGZ, (R,S)-3, (S)-3, (R,S)-7 or the vehicle alone (DMSO) for 24 hs is shown. Luciferase activity is reported as fold induction after normalization to β-galactosidase activity used as control of transfection efficiency. […]
The Top-FLASH reporter plasmid containing three copies of TCF binding sites was transiently transfected into HEK293 cells with Lipofectamine 2000 (Invitrogen, Carlsbad, CA, USA) in 24-well plates. […] Luciferase activity was measured after 24 h of compounds treatment and normalized to β-galactosidase. […]

For data set [4], the system named is HT-29 cells. In words: Annexin V-FITC / propidium iodide apoptosis flow cytometry in HT-29 cells. Format: cell-based, human. The following applies: 10 µM, 48 hs. How it is done: To evaluate whether the cell cycle arrest induced by our compounds was accompanied by induction of cell death, we treated HT-29 cells with 10 μM RGZ, (R,S)-3, (S)-3 and (R,S)-7 for 48 hs and then stained with Annexin V-FITC and propidium iodide followed by flow cytometry analysis (Fig. 3A,B). All compounds stimulated apoptosis; the percentage of Annexin^+/propidium^+ cells was higher in (S)-3 than RGZ, (R,S)-3 and (R,S)-7 treated cells. Accordingly, we surveyed the levels of caspase 3, one of the effectors of the process, and found a significant reduction of the precursor and a concomitant increase of the cleaved form with (S)-3 exerting the strongest effect (Fig. 3C).
Figure 3 Effects of RGZ, (R,S)-3, (S)-3 and (R,S)-7 on HT-29 cell apoptosis and caspase-3 activation analysis. (A) HT-29 cells were treated for 48 hs with 10 µM of RGZ, (R,S)-3, (S)-3 and (R,S)-7, respectively, stained by Annexin V-propidium iodide and analyzed by flow cytometry. (B) Early (Ann+/PI−) and late (Ann+/PI+) apoptotic cell populations were evaluated and reported in the graphic representation. […] (C) Total protein extracts from proliferating HT-29 cells, treated or not with 10 µM RGZ, (R,S)-3, (S)-3 and (R,S)-7, respectively, for 48 hs were analyzed by Western blotting with an anti-caspase 3 antibody. […]

Data set [5] concerns p21^waf1/cip1. Kind of data set: Western blotting of p21waf1/cip1 in RKO cells stably transfected with PPARG1. The following applies: RKO clone expressing exogenous PPARγ1, 10 µM, 48 hs.
Data set [6] has as its system p21^waf1/cip1. Kind of data set: Western blotting of p21waf1/cip1 in parental RKO cells (no endogenous PPARG). The following applies: 10 µM, 48 hs.

“And” between values parts separate entries of the source, which are not always exact repeats. Equal values may be shown once.

In general, EC50 refers to the concentration at which the effect is half-maximal. Low values mean an effect from little substance, high ones a need for much substance. Regarding `O=C(O)C(CCCc1ccc(Cl)cc1)Oc1ccc(Cl)cc1` (racemic), on PPARγ1 (PPARγ transactivation with respect to the full agonist RGZ taken as 100%), the Efficacy was 65% and 65 ± 2.4%. For the same compound, on PPARγ1 (PPARγ transactivation, PPRE-Luc reporter, HEK293 expressing PPARγ1, 24 hs treatment), the EC50 stood at 0.35 µM. Further, in the data set with HT-29 cells [1] (read-out: Proliferation IC50, concentration range 1 to 25 µM), the IC50 stood at 7.3 µM. In the data set on HT-29 cells [1] (remaining surviving cells), the Residual viability came out at 47 ± 2.3%. Besides, the Cell cycle changes result in the data set with HT-29 cells [2] is listed as “dosage-dependent increase of the G0/G1 cell population”. Moreover, the p21waf1/cip1 protein expression result in the data set with p21^waf1/cip1 [3] was “slight”. The “cyclin D1 protein level” value in the data set on cyclin D1 is on record as “reduction”. The c-Myc protein level result with c-Myc is on record as “reduction”. Besides, the β-catenin protein level entry with β-catenin is on record as “reduction”. In addition, the “Luciferase activity remaining on co-treatment with LiCl” value in the data set on β-catenin/TCF pathway turned out to be 80%. In addition, the Apoptosis induction entry in the data set with HT-29 cells [4] is on record as “stimulated apoptosis”. Moreover, the p21waf1/cip1 expression result is listed as “induced accumulation” in the data set on p21^waf1/cip1 [5] and “no p21^waf1/cip1 variations” with p21^waf1/cip1 [6].

The record behind these values is article PMC6443668, “Chiral phenoxyacetic acid analogues inhibit colon cancer cell proliferation acting as PPARγ partial agonists” (Scientific Reports, 2019).
